Earlier results in patent publication US8986652B2, “Method of preparing [123I]iodooctyl fenbufen amide and application thereof” (National Tsing Hua University, priority 2012, dated 2015).

Protein sequences, listed by entry. Tags and fused reporters are not part of them. Residues count along the entry.
UniProt P23219, 24-599: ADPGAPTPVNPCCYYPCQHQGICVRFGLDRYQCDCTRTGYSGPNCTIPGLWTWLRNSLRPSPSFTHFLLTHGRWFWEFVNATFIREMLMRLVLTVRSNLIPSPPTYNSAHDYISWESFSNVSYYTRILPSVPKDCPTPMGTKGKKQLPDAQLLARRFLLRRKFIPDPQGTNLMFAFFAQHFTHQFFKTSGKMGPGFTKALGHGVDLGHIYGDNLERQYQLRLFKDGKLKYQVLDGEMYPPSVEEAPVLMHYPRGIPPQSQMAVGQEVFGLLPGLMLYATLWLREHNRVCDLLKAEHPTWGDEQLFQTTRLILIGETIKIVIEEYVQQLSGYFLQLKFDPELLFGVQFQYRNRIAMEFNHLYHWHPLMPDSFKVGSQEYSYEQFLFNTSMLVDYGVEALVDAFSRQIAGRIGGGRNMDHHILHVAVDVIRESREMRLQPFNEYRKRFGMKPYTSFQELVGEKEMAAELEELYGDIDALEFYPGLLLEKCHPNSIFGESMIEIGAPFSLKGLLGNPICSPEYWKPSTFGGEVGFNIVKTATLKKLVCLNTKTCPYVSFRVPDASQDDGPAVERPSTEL

Target: COX-1 (Homo sapiens, UniProt P23219)
Conditions: read-out: IC50 value COX-1, lit. data; cited from earlier work

For Oc1ccc(C=Cc2cc(O)cc(O)c2)cc1 [Resveratrol], which IC50 is on record?
Its IC50 is 1560 nM.
